Measurements from patent US6413935.

Molecular target: HLA-DQ3.1 (DQA1*0301/DQB1*0310), purified from PF cells (human) (UniProt P01909)
Assay: 125I-peptide inhibition, purified class II

IC50: 0.577 µM
Substance: Ova 323-336 (peptide)
